## Measured affinities in a library of Ab-14 heavy chain variants

All variants were tested on one target, the spike HR2 peptide PDVDLGDISGINAS (SARS-CoV-2).

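The starting antibody came from a phage panning campaign against this peptide. Designed CDR sequences, proposed from the first random library and measured here. Group labels follow the data file (Rand: our label for a block that the file lists under HC and that is probably the random mutants of the ten best first-round binders; En: ensemble of fine-tuned language models; HC: hill climbing; Gen: genetic algorithm; Gibbs: Gibbs sampling; a sequence that several methods proposed may carry one label only). Affinity was read by AlphaSeq, a pooled yeast mating assay with surface-displayed partners. Pairs that bind mate more often; barcode pairs of the diploids are counted by sequencing. Each replicate has its own calibration line, from reference interactions of the BCL2 family. The assay was run in six technical replicates.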

Each scFv is VH, a (GGGGS)3 linker, VL, as in the parent Ab-14, and differs from it in the CDRs of the heavy chain only.
VH: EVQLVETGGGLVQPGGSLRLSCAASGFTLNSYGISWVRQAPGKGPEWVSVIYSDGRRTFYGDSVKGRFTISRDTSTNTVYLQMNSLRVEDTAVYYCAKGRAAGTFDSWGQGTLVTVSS
VL: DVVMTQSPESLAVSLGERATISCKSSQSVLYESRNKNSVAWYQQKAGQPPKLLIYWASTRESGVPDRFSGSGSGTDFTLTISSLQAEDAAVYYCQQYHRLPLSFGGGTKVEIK

Variants are written as CDR1, CDR2 and CDR3 of the heavy chain (limits as in the source). Parent: GFTLNSYGIS, VIYSDGRRTFYGDSVK, GRAAGTFDS. Variants here have more than six changes. Scale: log10 of Kd in nM, estimated from mating counts; low values are strong binders. An entry "ND" has no value in the source: the pair was not observed among the diploids in that replicate. This suggests poor binding but is not conclusive.

* GFDLNEYGIS / VIYADGMRTAYADSVK / GENAGTFVM [En_Gen]: ND, 1.54, ND, 2.18, ND, 1.99
* GFDIQDLGIS / VIYADGQRTAYSDGFK / GIIAGTFNI [En_Gibbs]: ND, 1.72, ND, 1.89, ND, 1.89
* GFDLNEYGIS / VIYADGRRTAYSDSVK / GGNAGTFDT [En_HC]: -0.11, -0.41, -0.38, -0.45, -0.56, -0.34
* GFDLDEYGIS / VIYADGMRTAYVDSVK / GNQAGTFDL [En_Gen]: -1.17, -1.07, -0.69, -0.90, -0.97, -0.39
* GFDLEEYGIS / VIYADGMRTAYSDSVK / GNVAGTFDI [En_Gen]: -0.42, -0.41, -0.37, -0.94, -0.58, -0.36
* GFDLESYGIS / VIYADGRRTFYSDSVK / GDNAGTFDI [En_HC]: -0.11, 0.07, 0.11, -0.17, 0.06, 0.03
* GFDIQEYGIS / VIYADGMRVAYTNSVK / GTQGGSNIE [En_Gibbs]: ND, ND, ND, ND, ND, ND
* GFDLNEYGIS / VIYADGQRTFYADSVK / GNQAGTFIS [En_HC]: 0.85, 0.90, 1.44, 1.04, 1.20, 0.96
* GFDLQEYGIS / VIYADGARKSYTNSVK / GVVGGGMDV [En_Gibbs]: ND, ND, ND, ND, ND, ND
* GFDLNEYGIS / VIYADGRRTAYSDSVK / GEVGGTFDV [En_HC]: -0.05, 0.14, -0.22, -0.34, -0.23, -0.15
* GFDLDEYGIS / VIYADGSRTAYADSVK / GENAGTFDT [En_Gen]: 0.88, 1.59, 0.65, -0.10, 0.06, 0.27
* GFDLNEYGIS / VIYADGKRTAYTDSVK / GQNAGTFDV [En_Gen]: 0.21, -0.12, -0.42, -0.65, -0.64, -0.28
* GFKLDEYGIS / VIYADGLRMHYANSVK / GEVAGTFTT [En_Gibbs]: 1.39, 0.73, 0.71, 1.39, 0.61, -0.01
* GFDLNEYGIS / VIYADGRRTFYVDSVK / GQTAGTFNV [En_HC]: -0.27, -0.28, -0.40, -0.59, -0.26, -0.26
* GFDLNEYGIS / VIYADGVRTFYADDVK / GEVAGTFDL [En_HC]: -0.63, -0.33, -0.32, -0.59, -0.62, -0.30
* GFDLNEYGIS / VIYADGRRTFYADSVK / GNVAGTFFM [En_HC]: -0.02, -0.26, 0.09, 0.05, -0.36, 0.92
* GFNIQEYGIS / VIYADGKRTAYAEPVK / GEDGGTIDT [En_Gibbs]: ND, ND, ND, 2.61, ND, ND
* GFDLNEYGIS / VIYADGRRTFYSDSVK / GQNAGTFDE [En_HC]: 0.15, -0.19, -0.68, -0.23, 0.50, -0.31
* GDNLEEYGIS / VIYADGKRSVYADSVK / GHISGWFAI [En_Gibbs]: ND, ND, ND, ND, ND, ND
* GFTLNSYGYS / VITSDGRRTFYDDSVK / GQLSGTFDY [Rand]: ND, ND, ND, ND, ND, ND
* GFDLNEYGIS / VIYADGMRTFYTDSVK / GEFAGTFDV [En_HC]: 0.19, 0.24, 0.12, -0.18, 0.09, 0.32
* GFGINEYGIS / VIYADGMRSAYANSVK / GAHAGGIVW [En_Gibbs]: 1.74, ND, ND, ND, ND, ND
* GFDLNEYGIS / VIYADGKRTAYADSVK / GNEAGTFDL [En_Gen]: 0.35, -0.06, -0.14, -0.06, -0.66, -0.08
* GFDLNEYGIS / VIYADGQRTAYADSVK / GEQAGTFDV [En_Gen]: -0.48, -0.41, -0.64, -0.40, -0.40, -0.31
* GFDLEKYGIS / VIYADGYRSAYAQNVK / GGHAGGFHF [En_Gibbs]: ND, ND, ND, ND, ND, ND
* GFDLNEYGIS / VIYADGKRTFYTDSVK / GEHAGIFDV [En_HC]: -0.18, -0.24, -0.43, -0.48, -0.25, -0.07
* GFDLQEYGIS / VIYADGARKSYTNSVK / GVVGGTMDV [En_Gibbs]: -0.67, 0.03, -0.83, ND, 0.29, ND
* GEDLDEYGIS / VIYADGRRVVYQDQVK / GELSGVFAQ [En_Gibbs]: ND, ND, ND, ND, ND, ND
* GFDINEYGIS / VIYADGMRTAYVQQVK / GQNLGFVEV [En_Gibbs]: ND, ND, ND, ND, ND, ND
* GFDLDEYGIS / VIYADGRRTFYADSVK / GEAAGTFTQ [En_HC]: 0.19, -0.17, -0.08, -0.08, -0.08, 0.08
* GFSLDEYGIS / VIYADGRRTAYADSVK / GNSAGTFDS [En_HC]: 0.89, 0.47, 0.25, 0.12, 0.42, 0.82
* GFDLDEYGIS / VIYADGKRTAYADDVK / GEVAGTFDI [En_Gen]: -0.20, -0.14, -0.02, -0.47, -0.28, 0.03
* GKKLDEYGIS / VIYADGKRKFYSNSVK / GGMAGGLTV [En_Gibbs]: ND, ND, ND, ND, ND, ND
* GFDLDEYGIS / VIYADGKRTAYADSVK / GNEAGTFDQ [En_Gen]: -0.40, -0.60, -0.69, -0.95, -0.65, -0.38
* GFDLNEYGIS / VIYADGRRTFYADSVK / GEAGGTFDI [En_HC]: -0.54, 0.06, 0.46, -0.73, -0.52, 0.21
* GFDLDEYGIS / VIYADGKRTAYTDSVK / GNVAGTFDM [En_Gen]: -0.51, -0.43, -0.56, -0.73, -0.44, -0.51
* GFDLDEYGIS / VIYADGVRTAYTDSVK / GEVAGTFDL [En_Gen]: 0.04, 0.06, -0.79, -0.38, -0.42, -0.08
* GFDLDEYGIS / VIYADGRRTFYKDSVK / GQNAGTFDM [En_HC]: -0.60, -0.46, -0.71, -0.82, -0.32, -0.53
* GFDLNEYGIS / VIYADGRRTAYVDSVK / GHNAGTFDV [En_HC]: 0.18, -0.11, -0.01, -0.17, 0.16, 0.11
* GKDLDEYGIS / VIYADGKRTHYVENVK / GQFGGNLLD [En_Gibbs]: ND, ND, ND, ND, ND, ND
* GFDLNEYGIS / VIYADGRRTAYSDSVK / GNAGGTFDV [En_HC]: 0.18, 0.56, -0.32, -0.28, 0.17, 0.10
* GFDLNEYGIS / VIYADGSRTFYSDSVK / GNQAGTFDQ [En_HC]: 0.36, 0.53, 0.24, -0.49, -0.62, -0.12
* GFDLNEYGIS / VIYADGFREAYAESVK / GLIQTGWTV [En_Gibbs]: ND, ND, ND, ND, ND, ND
* GFDLNEYGIS / VIYADGRRTQYVQSVK / GKNNMVLSV [En_Gibbs]: ND, ND, ND, ND, ND, ND
* GFDLNEYGIS / VIYADGKRTFYTDSVK / GNAAGTFLV [En_HC]: -0.19, 1.04, -0.18, -0.67, -0.55, -0.01

Extract of 8 entries:

- GFDINEYGIS / VIYADGMRTAYVQQVK / GQNLGFVEV [En_Gibbs] -> ND, ND, ND, ND, ND, ND
- GFDLNEYGIS / VIYADGRRTFYSDSVK / GQNAGTFDE [En_HC] -> 0.15, -0.19, -0.68, -0.23, 0.50, -0.31
- GFDLNEYGIS / VIYADGRRTAYSDSVK / GNAGGTFDV [En_HC] -> 0.18, 0.56, -0.32, -0.28, 0.17, 0.10
- GEDLDEYGIS / VIYADGRRVVYQDQVK / GELSGVFAQ [En_Gibbs] -> ND, ND, ND, ND, ND, ND
- GFDLDEYGIS / VIYADGSRTAYADSVK / GENAGTFDT [En_Gen] -> 0.88, 1.59, 0.65, -0.10, 0.06, 0.27
- GFDLDEYGIS / VIYADGKRTAYTDSVK / GNVAGTFDM [En_Gen] -> -0.51, -0.43, -0.56, -0.73, -0.44, -0.51
- GFDLNEYGIS / VIYADGRRTAYVDSVK / GHNAGTFDV [En_HC] -> 0.18, -0.11, -0.01, -0.17, 0.16, 0.11
- GFDLNEYGIS / VIYADGRRTAYSDSVK / GEVGGTFDV [En_HC] -> -0.05, 0.14, -0.22, -0.34, -0.23, -0.15

In the paper, a design with two or fewer of six values counts as a poor binder. Nonspecific signal, from three strains lacking the peptide, appeared in 1% of pairings of all heavy chain designs, centred on 2.08 (5% of these signals below 0.84); values are not corrected for it. The range of this assay differs from that of the first round, and the authors advise against merging the two.

Source: Li et al. 2023 (doi:10.1038/s41467-023-39022-2), MIT Lincoln Laboratory and A-Alpha Bio; data file from the FLAb repository.